Measured values reported in paper PMC3967229, “Largazole Pharmacokinetics in Rats by LC-MS/MS” (Marine Drugs, 2014).

What was measured:
[1] = Pharmacokinetics study in rats, i.v. bolus of largazole, plasma largazole thiol by LC-MS/MS; assay type: in vivo, Male Sprague Dawley rats
Description: The pharmacokinetics of largazole thiol was analyzed in rats after administration of a 10-mg/kg intravenous bolus of largazole and samples taken between zero and 5 h. […] The population pharmacokinetic model was developed using a non-linear mixed-effects modeling approach. A two-compartment model best describes the disposition of largazole in rats. The pharmacokinetics parameters of largazole thiol in rats are detailed in Table 8. The calculations assume a complete conversion of largazole to its thiol. The individual observed and predicted concentration-time profiles are depicted in Figure 5. […] The plots of the observed (OBS) concentrations vs. the model predicted (PRED) concentrations and OBS vs. individual predicted (IPRED) concentrations are shown in the top panel of Figure 6.
The non-compartmental pharmacokinetic analysis was utilized to obtain the steady-state pharmacokinetic parameters of each individual’s concentration-time profile, using WinNonLin version 6.3 (Pharsight Corp., Sunnyvale, CA, USA). Table 9 lists the summary statistics for the pharmacokinetic parameters on the observed concentration-time profiles.
Male Sprague Dawley rats (Charles River Laboratories International, Inc., Wilmington, MA, USA) weighing 240–260 g were used for the pharmacokinetic study of largazole. The pharmacokinetics of largazole was performed in rats by intravenous administration of 10 mg/kg. Largazole was formulated by dissolving in 20% ethanol, 20% DMSO, 20% PEG400 and 40% normal saline. A heparinized blood sample at 0.3–0.4 mL was collected from a sublingual vein puncture, according to the following schedule: 0, 0.12, 0.22, 0.33, 0.5, 0.75, 1, 1.5, 2, 3 and 5 h post-drug administration. The collected blood sample was placed on ice immediately, and plasma was separated from the blood sample by centrifugation at 2400× g for 20 min immediately after collection. Plasma samples were kept frozen at −80 °C until analysis by LC-MS/MS. The study was approved by the Institutional Animal Care and Use Committee of the University of Florida.
The population pharmacokinetic model was developed using a non-linear mixed-effects modeling approach. The first-order conditional maximum likelihood estimation in the NONMEM program (double precision, version 7.2, ICON Development Solutions, Elliott City, MD, USA) and NM-TRAN pre-processor were used. The subroutines within NONMEM were linear mammillary models (ADVAN3 used with TRANS4 in the PREDPP library) to investigate a two-compartment, intravenous model.
The non-compartmental pharmacokinetic analysis was utilized to obtain the steady-state pharmacokinetic parameters of each individual’s concentration-time profile, using the software, WinNonLin v5.3 (Pharsight, Mountain View, CA, USA).

[2] = Stability of largazole thiol in human plasma (short-term, freeze/thaw); assay type: in vitro ADME; details: for Stability, DEV (%) / Stability, Measured (mean): n=3
Description: To test the stability of largazole thiol, three replicates each of low and high concentrations were thawed at room temperature for 6 h to test the short-term stability. Samples at low and high concentrations were thawed at room temperature and refrozen at −20 °C for three cycles and then assayed. The matrix effect was studied by analyzing QC samples of largazole thiol in the mobile phase and extracts of plasma. Six samples at three concentration levels were prepared to calculate the matrix effect.

[3] = Plasma protein binding by ultrafiltration, rat plasma; assay type: in vitro ADME; details: for Protein binding (%) Rat (mean ± S.D.): n=3
Description: (§1) The non-specific binding of the compound to the membrane was 15.86%. PB%= (1 − Cf/(1 − NSB)/C0) × 100% (3) where PB is protein binding, Cf is the concentration in the filtrate, C0 is initial concentration and NSB is non-specific binding.
(§2) Protein binding of largazole thiol was performed in human and rat plasma at 0.5, 2 and 5.0 µg/mL, using the ultrafiltration method. Briefly, following the incubation of largazole thiol in plasma at 37 °C for 0.5 h, plasma containing the drug was loaded into the Centrifree® Ultrafiltration Device (Millipore Corp., Carrigtwohill, Ireland), and the filtrate device was centrifuged at 1,800× g for 25 min at 37 °C. Concentrations of the total drug before centrifugation and the free drug in the filtrate were extracted, and the residues were assayed by HPLC-MS/MS. PBS was used to test for nonspecific binding.

[4] = Non-specific binding to the ultrafiltration membrane (PBS); assay type: in vitro ADME; details: Centrifree ultrafiltration device
Description: as §1, §2

[5] = Plasma protein binding by ultrafiltration, human plasma; assay type: in vitro ADME; details: for Protein binding (%) Human (mean ± S.D.): n=3
Description: as §1, §2

[6] = population PK two-compartment model, rat, 10 mg/kg i.v. largazole
[7] = rat, single i.v. bolus 10 mg/kg largazole
[8] = 4 h at room temperature, nominal 37.5 ng/mL
[9] = 4 h at room temperature, nominal 300 ng/mL
[10] = Freeze/thaw cycle no. 1, nominal 37.5 ng/mL
[11] = Freeze/thaw cycle no. 1, nominal 300 ng/mL
[12] = Freeze/thaw cycle no. 2, nominal 37.5 ng/mL
[13] = Freeze/thaw cycle no. 2, nominal 300 ng/mL
[14] = Freeze/thaw cycle no. 3, nominal 37.5 ng/mL
[15] = Freeze/thaw cycle no. 3, nominal 300 ng/mL

With largazole thiol the “Interindividual variability, %CV of CL (ωCL)” value ([1]; population PK model, rat, 10 mg/kg i.v. largazole) was 6.06%, the “Interindividual variability, %CV of Vc (ωV)” value ([1]; population PK model, rat, 10 mg/kg i.v. largazole, fixed) was 31.6% and the “Inter compartment clearance (Q)” value [1, 6] was 442 mL/min/kg. The “Volume of central compartment (Vc)” value [1, 6] was 21.8 L/kg, the “Volume of peripheral compartment (Vp)” value [1, 6] was 17.4 L/kg and the “Plasma drug concentration after 2 h post-dose” value ([1]; rat, 10 mg/kg i.v. bolus of largazole, 10 mg/kg) was “below the quantifiable limit; also recorded: undetectable”. For the same substance, the “Time to elimination from systemic circulation” value ([1]; rat, i.v. 10 mg/kg) was at most 2 h, the “Plasma largazole thiol concentration within an hour post-administration” value [1, 7] was “less than 10 ng/mL” and the “Plasma largazole thiol concentration, initial” value [1, 7] was “about 300 ng/mL”. For the same substance, the “Clearance compared to romidepsin” value ([1]; ratio largazole thiol / romidepsin) was “about two-fold”, the “Stability, DEV (%)” value [2, 8] was 11.73% and the “Stability, Measured (mean)” value [2, 8] was 41.90. For the same substance, the “Stability, DEV (%)” value [2, 9] was 6.78%, the “Stability, Measured (mean)” value [2, 9] was 320.33 and the “Stability, DEV (%)” value [2, 10] was 5.87%. For the same substance, the “Stability, Measured (mean)” value [2, 10] was 39.70, the “Stability, DEV (%)” value [2, 11] was 11.89% and the “Stability, Measured (mean)” value [2, 11] was 335.67. For the same substance, the “Stability, DEV (%)” value [2, 12] was 9.68%, the “Stability, Measured (mean)” value [2, 12] was 41.13 and the “Stability, DEV (%)” value [2, 13] was −0.56%. For the same substance, the “Stability, Measured (mean)” value [2, 13] was 298.33, the “Stability, DEV (%)” value [2, 14] was 7.73% and the “Stability, Measured (mean)” value [2, 14] was 40.40. The “Stability, DEV (%)” value [2, 15] was 5.22%, the “Stability, Measured (mean)” value [2, 15] was 315.67 and the “Short-term stability test, differences” value ([2]; human plasma, room temperature) was at most 11.73%. The “Stability of plasma samples over freeze and thaw cycles” value ([2]; three freeze and thaw cycles) was “stable”, the “Protein binding (%) Rat (mean ± S.D.)” value ([3]; drug concentration 0.5 µg/mL) was 79.27 ± 1.85% and the “Protein binding (%) Rat (mean ± S.D.)” value ([3]; drug concentration 2 µg/mL) was 74.39 ± 1.95%. For the same substance, the “Protein binding (%) Rat (mean ± S.D.)” value ([3]; drug concentration 5 µg/mL) was 77.75 ± 0.86%, the Free drug component ([3]; rat plasma) was 23% and the “Plasma protein binding, overall mean” value ([3]; rat plasma, ultrafiltration, mean over 0.5, 2 and 5 µg/mL) was 77.14%. The “Non-specific binding to the membrane” value [4] was 15.86%, the “Protein binding (%) Human (mean ± S.D.)” value ([5]; drug concentration 0.5 µg/mL) was 92.52 ± 0.083% and the “Protein binding (%) Human (mean ± S.D.)” value ([5]; drug concentration 2 µg/mL) was 89.38 ± 0.94%. The “Protein binding (%) Human (mean ± S.D.)” value ([5]; drug concentration 5 µg/mL) was 88.48 ± 0.23%, the Free drug component ([5]; human plasma) was 10% and the “Plasma protein binding, overall mean” value ([5]; human plasma, ultrafiltration, mean over 0.5, 2 and 5 µg/mL) was 90.13%.

Entries after “also recorded” stand apart in the source; their conditions may differ.
